Source: PubChem BioAssay (National Center for Advancing Translational Sciences (NCATS))
Mito fusion yeast – inhibitors of mitochondrial division or activators of mitochondrial fusion; 320,000 tested, 0.23% active; AID 485298; Potency, µM (doses to about 46.1 µM), without a hit: at the highest dose growth rescue (activation), most hits filed as activators; S. cerevisiae fusion-defective mutant growth rescue, CellTiterGlo 48 h; also: potency is read from the fitted curve at half-maximal effect; % of control where 0% means no effect; nearly all actives have a fitted effect of over 45% in size
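Yeast fusion mutant, YPEG (non-fermentable carbon), compound, 48 h at 37C non-permissive; CellTiterGlo added, 10 min RT, luminescence read. Rescued growth = division inhibition.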
GRP78 ERSR act – induces the endoplasmic reticulum stress response in human glioma cells. U87-MG GRP78 promoter luciferase reporter, 16 h. Potency, µM, for inactives: top-dose activation, actives largely listed as activators. 420,000 tested, 0.02% active. AID 602332; also: potency is read from the fitted curve at half-maximal effect; series mostly up to about 76 µM; % of control where 0% means no effect; nearly all actives have a fitted effect of over 35% in size
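Stably transfected U87-MG human glioma cells carrying a GRP78-based luminescent sensor were seeded at 1000 cells/well, pin-dosed with compounds and incubated 16 h. Luciferase reagent was then added, and end-point luminescence was read after 10 min at room temperature.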
Nrf2 inh – Nrf2 pathway inhibition. A549 ARE-Fluc reporter, luciferase luminescence, 18-24 h. Potency, µM (doses to about 46 µM), for inactives: at the top dose activity change, negative = inhibition, hits mostly inhibitors. 360,000 tested, 2.1% active; also: potency is read from the fitted curve at half-maximal effect; % is scaled to controls: 0 for no effect and ±100 for the full control effect; nearly all actives have a fitted effect of over 60% in size
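Concentration-response testing used A549 ARE_Fluc cells at 5000 cells/well. Following an 18-24 h compound incubation, viability was read by fluorescence (Ex 405/Em 525) and luciferase output by luminescence.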
Nrf2 activator – Nrf2 pathway activation; 410,000 tested, 0.31% active; AID 624171; Potency, µM (top dose mostly 46.1 µM), without a hit: top-dose activation, usual class: activators; AREc32 ARE-luciferase reporter (MCF7-derived line), luminescence, 24 h; also: potency is read from the fitted curve at half-maximal effect; % of control where 0% means no effect; nearly all actives have a fitted effect of over 65% in size
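AREc32 cells carrying an ARE-driven firefly luciferase reporter were seeded at 1000 cells/well in OPTI-MEM with 5% FBS, then exposed to compound for 24 hr at 37 deg C. Luminescence was read with Steady-Glo after 30 min at RT.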
miR-21 FLuc – raises the signal of a miR-21 reporter; HeLa miR-21 FLuc reporter, luciferase, 48 h; Potency, µM (top dose mostly 38.3 µM), for inactives: at the highest dose reporter change, positive = more light; AID 2288; 340,000 tested, under 10 active; active = well fitted rising curve with a large enough effect; inconclusive = small, poorly fitted or top-dose-only effect; inactive = no such curve, though single readings can be large or run the other way;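 note: % of control where 0% means no effect; miR-21 action dims this reporter so a rising signal means less miR-21 action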
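Using DMEM plus 10% FBS, HeLa miR-21-FLuc cells are incubated with test compounds (final up to about 40uM) for 48 hours; firefly luciferase signal is then imaged following reagent-mediated lysis.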
A549 tox-1 – counter-screen for Nrf2 inhibitors: cytotoxicity in A549 cells | A549 ARE-Fluc cells, CellTiter-Fluor viability, 18-24 h | Potency, µM (top dose mostly 46 µM), without a hit: at the highest dose activity change, negative = cytotoxicity, actives largely listed as inhibitors | 390,000 tested, 0.16% active; also: potency is read from the fitted curve at half-maximal effect; % is scaled to controls: 0 for no effect and ±100 for the full control effect
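Cytotoxicity counterscreen: CellTiter-Fluor fluorescence was measured in A549 ARE_Fluc cells after 18-24 h of compound exposure in a concentration series. The subsequent BugLite luminescent read reports ARE-luciferase activity.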
FLuc enzyme inh – firefly luciferase inhibition, Nrf2 hit validation | AID 720522 | purified firefly luciferase, luminescence inhibition | shares compounds with Nrf2 inh | Potency, µM (doses to about 57.5 µM), inactives show at the top dose activity change, negative = inhibition, most hits filed as inhibitors | 1,400 tested, 4% active; also: potency is read from the fitted curve at half-maximal effect; % is scaled to controls: 0 for no effect and ±100 for the full control effect; nearly all actives have a fitted effect of over 65% in size
A549 tox-2 – A549 cytotoxicity, Nrf2 inhibitor counterscreen | Potency, µM (highest dose often 46.1 µM), without a hit: at the highest dose activity change, negative = cytotoxicity, hits mostly inhibitors | shares compounds with Nrf2 inh | AID 720523 | A549 ARE-Fluc cells, cytotoxicity counterscreen | 1,400 tested, 2% active;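 also: potency is read from the fitted curve at half-maximal effect; cells exposed to compounds for 18 to 24 hours; % is scaled to controls: 0 for no effect and ±100 for the full control effect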
ARE-Fluc inh – confirmation of Nrf2 inhibitors in A549 ARE reporter cells; Potency, µM (series often up to 46.1 µM), for inactives: top-dose activity change, negative = inhibition, hits mostly inhibitors; AID 720524; A549 ARE-firefly luciferase reporter, luminescence; shares compounds with Nrf2 inh; 1,400 tested, 74% active; also: potency is read from the fitted curve at half-maximal effect; % is scaled to controls: 0 for no effect and ±100 for the full control effect; nearly all actives have a fitted effect of over 65% in size
Numbers without * were called inactive; ? = inconclusive; nt = no result given. Compounds with a hit are over-represented: about 2.3% of the library has one in this group of screens. Unless noted, calls follow the shape of the dose curve; as a rule, active = well fitted curve in the direction sought with a large enough effect; inconclusive = small, poorly fitted or top-dose-only effect, or another doubt; inactive = no such curve, though single readings can be large; an effect the other way counts as inactive or inconclusive.

1: Cc1ccc(Cn2c(C)c3cnn(CC(=O)N4CCN(c5cc(C)ccc5C)CC4)c(=O)c3c2C)cc1
2: Cc1c2cnn(CC(=O)N3CCN(c4ccc(F)cc4)CC3)c(=O)c2c(C)n1Cc1ccc(F)cc1
3: O=C(NCc1ccco1)c1nc2c(nnn2Cc2ccccc2Cl)c(=O)[nH]1
4: CCc1nc(C)cn1S(=O)(=O)c1ccc(Cl)c(Cl)c1OC
5: CCOc1ccc(OCC)c(S(=O)(=O)n2cc(C)nc2CC)c1
6: COc1c(S(=O)(=O)N2CCN(c3ccc(F)cc3)CC2)ccc(Cl)c1Cl
entry no.	1	2	3	4	5	6
Mito fusion yeast	nt	nt	0%	nt	7%	0%
GRP78 ERSR act	-3%	-2%	-3%	-2%	-3%	-2%
Nrf2 inh	8.2µM*	?	4.6µM*	5.8µM*	22%	-18%
Nrf2 activator	-1%	4%	-2%	0%	0%	0%
miR-21 FLuc	?	-2%	?	16%	-1%	-5%
A549 tox-1	-17%	-11%	?	0%	9%	14%
FLuc enzyme inh	4%	nt	-6%	0%	nt	nt
A549 tox-2	-23%	nt	?	-1%	nt	nt
ARE-Fluc inh	6.5µM*	nt	6.5µM*	5.8µM*	nt	nt

An excerpt from above in order of formula weight, smallest number first:
4: CCc1nc(C)cn1S(=O)(=O)c1ccc(Cl)c(Cl)c1OC
3: O=C(NCc1ccco1)c1nc2c(nnn2Cc2ccccc2Cl)c(=O)[nH]1
6: COc1c(S(=O)(=O)N2CCN(c3ccc(F)cc3)CC2)ccc(Cl)c1Cl
entry no.	4	3	6
Mito fusion yeast	nt	0%	0%
GRP78 ERSR act	-2%	-3%	-2%
Nrf2 inh	5.8µM*	4.6µM*	-18%
Nrf2 activator	0%	-2%	0%
miR-21 FLuc	16%	?	-5%
A549 tox-1	0%	?	14%
FLuc enzyme inh	0%	-6%	nt
A549 tox-2	-1%	?	nt
ARE-Fluc inh	5.8µM*	6.5µM*	nt

(next part)
7: CCOc1cc(Cl)c(S(=O)(=O)n2cc(C)nc2CC)cc1Cl
8: COc1ccc(Cl)cc1NC(=O)C1CCCN(S(=O)(=O)c2ccc3c(c2)CCCC(=O)N3)C1 (configuration not stated)
9: O=C(CSCc1ccccc1Br)N/N=C/c1ccccc1C(=O)O
10: CC1(C)CC(N2CCN(c3ccccc3)CC2)=CC(=[N+]2CCCC2)C1
11: CC1(C)CC(N2CCCC2)=CC(=[N+]2CCCCCC2)C1
12: CC1CC(C)C[N+](=C2C=C(N3CCCC3)CC(C)(C)C2)C1 (configuration not stated)
entry no.	7	8	9	10	11	12
Mito fusion yeast	nt	nt	-1%	1%	25%	23%
GRP78 ERSR act	-3%	-3%	-1%	-3%	-5%	-5%
Nrf2 inh	8.2µM*	?	18%	?	-20%	5.2µM*
Nrf2 activator	0%	-1%	0%	0%	-1%	0%
miR-21 FLuc	21%	?	-2%	?	?	?
A549 tox-1	-8%	2%	6%	-6%	-23%	?
FLuc enzyme inh	3%	nt	nt	2%	nt	-3%
A549 tox-2	0%	nt	nt	-13%	nt	-28%
ARE-Fluc inh	8.2µM*	nt	nt	4.6µM*	nt	nt

13: O=C(NCCc1ccccc1)c1c2c(nc3ccccc13)C(=O)N(C1CCCCC1)C2
14: Cc1ccc(-c2nc3cc(NC(=O)C(C)C)ccc3o2)cc1
15: CC(Oc1ccc(Cl)cc1Cl)C(=O)Nc1ccc2oc(-c3ccncc3)nc2c1 (configuration not stated)
16: C/C(Cl)=C\Cn1c(NCCc2ccccc2)nc2c1c(=O)n(C)c(=O)n2C
17: CCN(CC)CCNc1nc2c(c(=O)n(C)c(=O)n2C)n1C/C=C(/C)Cl
18: Cn1c(=O)c2c(nc(NCCc3ccccc3)n2CC(=O)NCCc2ccccc2)n(C)c1=O
entry no.	13	14	15	16	17	18
Mito fusion yeast	nt	17%	4%	6%	2%	6%
GRP78 ERSR act	-1%	-1%	-5%	-4%	-3%	-3%
Nrf2 inh	?	?	4.6µM*	2.9µM*	11%	-2%
Nrf2 activator	6%	3%	0%	0%	0%	0%
miR-21 FLuc	-11%	-57%	-6%	7%	10%	0%
A549 tox-1	-19%	-5%	?	-16%	-8%	0%
FLuc enzyme inh	nt	nt	3%	1%	nt	nt
A549 tox-2	nt	nt	-16%	-11%	nt	nt
ARE-Fluc inh	nt	nt	8.2µM*	7.3µM*	nt	nt

19: C=CCn1c(NCCc2ccccc2)nc2c1c(=O)n(C)c(=O)n2C
20: CN(Cc1ccc(OC(F)F)cc1)C(=O)c1cccc(S(=O)(=O)N2CCN(c3ccccc3)CC2)c1
21: CN(Cc1ccc(Cl)c(Cl)c1)C(=O)c1cccc(S(=O)(=O)N2CCN(Cc3ccccc3)CC2)c1
22: CN(Cc1cccc(F)c1)C(=O)c1cccc(S(=O)(=O)N2CCN(Cc3ccccc3)CC2)c1
23: CCOc1cc(C(=O)NN=C2CCCC2)cc(OCC)c1OCC
24: Cc1ccnc2ccc3ccccc3c12
entry no.	19	20	21	22	23	24
Mito fusion yeast	4%	nt	11%	0%	0%	nt
GRP78 ERSR act	-5%	-3%	-3%	-3%	-6%	-5%
Nrf2 inh	9.2µM*	4.6µM*	9.2µM*	?	-1%	nt
Nrf2 activator	0%	0%	0%	-1%	-1%	nt
miR-21 FLuc	12%	nt	nt	4%	13%	nt
A549 tox-1	-9%	-17%	-20%	-12%	3%	nt
FLuc enzyme inh	2%	-2%	-2%	nt	nt	-1%
A549 tox-2	4%	2%	-24%	nt	nt	-23%
ARE-Fluc inh	nt	nt	?	nt	nt	6.5µM*

25: COc1ccc(CC(=O)NCc2nn(-c3ccccc3)nc2C)cc1OC
26: COc1ccc(-c2ocnc2C(=O)NCc2nn(-c3ccccc3)nc2C)cc1
27: CC(=O)Nc1cc(NC(C)=O)cc(C(=O)NCC2(N3CCOCC3)CCCCC2)c1
28: COc1ccc([C@H]2CC(=O)C=C(c3ccnc4ccc(Cl)cc34)C2)cc1
29: CC(C)CNc1nc(N)c([N+](=O)[O-])c(N2CCCCCC2)n1
30: Cc1csc(NC(=O)CSc2nnc3c4ccccc4nc(C(C)(C)C)n23)n1
entry no.	25	26	27	28	29	30
Mito fusion yeast	-2%	5%	-4%	?	21%	5%
GRP78 ERSR act	-3%	-2%	-4%	-2%	-3%	-4%
Nrf2 inh	-7%	2.9µM*	-7%	7.3µM*	9.2µM*	?
Nrf2 activator	-1%	0%	0%	0%	3%	-1%
miR-21 FLuc	0%	16%	nt	nt	15%	0%
A549 tox-1	12%	4%	-8%	-21%	-2%	?
FLuc enzyme inh	nt	-2%	nt	2%	-2%	nt
A549 tox-2	nt	-6%	nt	-16%	1%	nt
ARE-Fluc inh	nt	5.8µM*	nt	8.2µM*	8.2µM*	nt

31: Oc1c(C(Nc2ccccn2)c2ccccn2)ccc2cccnc12 (configuration not stated)
32: Oc1ccccc1C(Nc1nccs1)c1ccc2cccnc2c1O (configuration not stated)
33: COc1nnc(-c2ccc(N3CCCCC3)c(NC(=O)c3ccccc3Cl)c2)c2ccccc12
34: CCCCCc1ccc(OCCOCCn2c[n+](C)c3ccccc32)c(CCCCC)c1
35: C/C(=N\Nc1ccc2nncn2n1)c1ccccn1
entry no.	31	32	33	34	35
Mito fusion yeast	0%	4%	nt	-3%	-3%
GRP78 ERSR act	-4%	-7%	0%	-13%	-2%
Nrf2 inh	?	5.8µM*	6.5µM*	7.3µM*	3.7µM*
Nrf2 activator	0%	3%	1%	-5%	0%
miR-21 FLuc	10%	21%	?	?	15%
A549 tox-1	-11%	?	-30%	-25%	-27%
FLuc enzyme inh	nt	1%	2%	-1%	-17%
A549 tox-2	nt	-27%	-29%	?	-9%
ARE-Fluc inh	nt	13µM*	6.5µM*	nt	2.6µM*
